The list shows a part of the results. Records with an inconclusive call do not appear. Calls of active or inactive are those of the source. The calls were made as follows: active = hit-call score of the fitted dose curve at least 0.9, where 1 is the maximum; inactive = score below 0.9.

Among the data in PubChem BioAssay (EPA / NIEHS) are outcome values, retold here.

A short description of the test: ATG_M_61_TRANS: Attagene TRANS-FACTORIAL HepG2 Assay for M61 Transcription Factor (Internal Marker) (AID 2282988). The conditions noted are these: HepG2 Attagene TRANS M61 internal marker reporter. As to the method: ATG_TRANS is a cell-based, multiplexed-readout assay that uses HepG2, a human liver cell line, with measurements taken at 24 hours after chemical dosing in a 24-well plate.ATG_M_61_TRANS is one of 30 assay component(s) measured or calculated from the ATG_TRANS assay. It is designed to make measurements of mRNA induction, a form of inducible reporter, as detected with fluorescence intensity signals by Reverse transcription polymerase chain reaction (RT-PCR) and Capillary electrophoresis technology.Data from the assay component ATG_M_61_TRANS was analyzed into 1 assay endpoint. This assay endpoint, ATG_M_61_TRANS, was analyzed in the positive analysis fitting direction relative to DMSO as the negative control and baseline of activity. Using a type of inducible reporter, measures of mRNA for gain-of-signal activity can be used to understand the background control at the transcription factor-level as they relate to the gene . Furthermore, this assay endpoint can be referred to as a secondary readout, because this assay has produced multiple assay endpoints where this one serves a background control function. To generalize the intended target to other relatable targets, this assay endpoint is annotated to the background measurement intended target family, where the subfamily is internal marker.
Human liver HepG2 cells are transiently transfected with multiple reporter transcription units (MRTUs) in 6-well plates using FuGene 6 reagent (Roche; 3 ml FuGene/1 mg DNA). The MRTU constructs are regulated by a cis-regulating element (promoter). […] A major difference between the CIS and TRANS system is that in CIS activities of endogenous TFs are measured, whereas the TRANS assay evaluates changes in activities of exogenous, chimeric NR-Gal4 proteins. […] At the end of 24 hour incubation, total RNA was isolated using TriZol reagent (Invitrogen). The isolated RNA is then reverse-transcribed using oligo(dT) primer and Mo-MLV reverse transcriptase (Invitrogen) with DNAse I (Ambion) treatment for 30 min. The one-tenth of the produced cDNA was amplified by PCR using Taq DNA polymerase (Invitrogen) and two reporter sequence-specific primers. The PCR products were fluorescently labeled by primer extension with 6-arboxyfluorescein (6-FAM) 5'-labeled reporter sequence-specific primer (2 min at 95 C, 20 s at 68 C and 10 min at 72 C) and these products were digested with 5U of HpaI (New England Biolabs) for 2h at 37 C. The fragments were purified using Qiaquick PCR columns (Qiagen), analyzed on an ABI 3130xL genetic analyzer (Applied Biosystems) with peak positions identified by using a set of X-rhodamine (ROX)-labeled MapMarker1000 molecular weight standards (BioVentures). The raw capillary electrophoresis data was processed using Attagraph software (Attagene).
With `Cc1ccc([N+](=O)[O-])c([N+](=O)[O-])c1`, the compound was classed as inactive. As to `Cc1cccc([N+](=O)[O-])c1[N+](=O)[O-]`, the call was inactive. `CC(C)N(CCO)C(C)C`: the call was inactive. Regarding `Cc1c([N+](=O)[O-])cccc1[N+](=O)[O-]`, the call was inactive. For the compound `Cc1ccc([N+](=O)[O-])cc1[N+](=O)[O-]`, the compound was classed as inactive. With `N#CBr` the entry was “inactive”; with `COP(C)(=O)OC`, “inactive”.
